Apparent affinities of Ab-95 variants for a coronavirus HR2 peptide

From the AlphaSeq antibody data of Engelhart et al. 2022 (doi:10.1038/s41597-022-01779-4), copy in the FLAb collection.

The target is the same throughout: PDVDLGDISGINAS, from the HR2 region of SARS-CoV-2 spike.

Parent scFv Ab-95: VH joined to VL by the linker GGGGSGGGGSGGGGS. Changes lie in the light chain CDRs alone.
VH: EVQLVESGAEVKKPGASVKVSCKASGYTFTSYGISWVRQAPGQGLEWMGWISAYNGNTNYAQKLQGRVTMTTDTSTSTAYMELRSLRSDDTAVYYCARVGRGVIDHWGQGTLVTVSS
VL: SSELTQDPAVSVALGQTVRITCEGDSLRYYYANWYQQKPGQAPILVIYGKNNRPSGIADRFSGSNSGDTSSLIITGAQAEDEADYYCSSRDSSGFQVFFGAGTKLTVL

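The parent was found by panning a naive human phage display library on the peptide. In library AAYL52, one, two or three CDR residues were substituted; doubles and triples were drawn at random. AlphaSeq pools MATa yeast showing the antibodies with MATalpha yeast showing the peptide. After mating in shaken culture at 30 °C for 16 h, diploids were selected and their barcode pairs sequenced. The ratio of observed to expected reads was calibrated, replicate by replicate, on BCL2-family standards whose Kd was known from biolayer interferometry. There are three technical replicates.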

Positions count from residue 1 of the parent VL; N33A puts A in place of N.
All variants listed here change F98 of the VL, counted from its first residue.
Kd is apparent (estimated from mating counts) and averaged on the log scale over replicates with a signal. Smaller is tighter.
A pair that was not seen in any replicate is written "nd"; this usually means weak binding, but a binder can also be missed.
For reference, the parent read 200 nM as the reference entry and 180 nM as a member of this library.
Three control strains display no target. For library AAYL52, 28% of the pairings with them gave a signal, with a median of 8.2 µM and one signal in twenty below 800 nM, so weak values seen in few replicates may be background. For each scFv, signals with the empty controls are counted beside the result.

For N33A/G49I/F98E, the assay gave nd (0 of 3 replicates; controls 2 of 9). Variant A32V/V97R/F98V showed 550 nM (3 of 3 replicates; controls 2 of 9). For Y31W/N52I/F98D, the assay gave 1.3 µM (3 of 3 replicates; controls 2 of 9). For L27V/N52C/F98L, the assay gave 23 µM (2 of 3 replicates; controls 0 of 9). For E23S/F98R, the assay gave 53 nM (3 of 3 replicates; controls 1 of 9). Variant N52Y/S92Y/F98A gave 1.4 µM (3 of 3 replicates; controls 0 of 9). Variant Y31G/S89D/F98K showed 20 nM (3 of 3 replicates; controls 0 of 9). Variant S26H/G49F/F98S showed 14 µM (2 of 3 replicates; controls 3 of 9).

With G49L/Q96D/F98G the result was nd (0 of 3 replicates; controls 0 of 9). With L27I/S88I/F98G the result was 22 µM (1 of 3 replicates; controls 1 of 9). With N51R/S92R/F98V the result was nd (0 of 3 replicates; controls 0 of 9). For N51L/F98G, the assay gave 24 µM (3 of 3 replicates; controls 4 of 9). For G24W/D91N/F98Q, the assay gave 15 µM (2 of 3 replicates; controls 3 of 9). Variant S88A/S92Q/F98P gave 110 nM (3 of 3 replicates; controls 2 of 9). With R28S/F98K the result was 670 nM (3 of 3 replicates; controls 4 of 9). Variant G24S/F98P gave 520 nM (3 of 3 replicates; controls 3 of 9).

For R90W/S92W/F98N, the assay gave 56 µM (1 of 3 replicates; controls 0 of 9). Variant F98D gave 610 nM (3 of 3 replicates; controls 5 of 9). With N52E/F98C the result was 2.9 µM (3 of 3 replicates; controls 2 of 9). Variant S93V/Q96C/F98L gave 6.4 µM (3 of 3 replicates; controls 2 of 9). With K50T/V97D/F98Q the result was 1.4 µM (2 of 3 replicates; controls 0 of 9). Variant E23P/G49I/F98V gave 130 µM (1 of 3 replicates; controls 3 of 9). With R28W/K50V/F98S the result was 5.6 µM (2 of 3 replicates; controls 4 of 9). For L27E/Y31G/F98L, the assay gave 1.3 µM (3 of 3 replicates; controls 4 of 9).

For Y30F/S92D/F98S, the assay gave 1.8 µM (3 of 3 replicates; controls 3 of 9). For A32N/S92T/F98V, the assay gave 220 nM (3 of 3 replicates; controls 4 of 9). Variant Y30V/F98Y gave 140 nM (3 of 3 replicates; controls 5 of 9). Variant Y31N/S92E/F98E gave 13 nM (3 of 3 replicates; controls 2 of 9). Variant R28G/S88L/F98Q showed 1.8 µM (2 of 3 replicates; controls 0 of 9). Variant E23L/L27H/F98V showed 4.8 µM (1 of 3 replicates; controls 3 of 9). Variant P54W/S55G/F98M gave 1.1 µM (2 of 3 replicates; controls 5 of 9). For Y29R/F95C/F98M, the assay gave nd (0 of 3 replicates; controls 0 of 9).

For R53Q/G94V/F98K, the assay gave nd (0 of 3 replicates; controls 1 of 9). Variant K50R/S89W/F98Y showed 950 nM (2 of 3 replicates; controls 1 of 9). For Q96E/F98C, the assay gave 4.8 µM (3 of 3 replicates; controls 3 of 9). For G24H/A32P/F98S, the assay gave 100 nM (3 of 3 replicates; controls 3 of 9). With S88G/S92T/F98H the result was 160 nM (3 of 3 replicates; controls 5 of 9). Variant G49V/R90V/F98P gave 8.2 µM (2 of 3 replicates; controls 0 of 9). For G49S/S93W/F98Q, the assay gave 250 µM (2 of 3 replicates; controls 5 of 9).

Again, the first 5 entries without any signal:

N33A/G49I/F98E: nd (0 of 3 replicates; controls 2 of 9).
G49L/Q96D/F98G: nd (0 of 3 replicates; controls 0 of 9).
N51R/S92R/F98V: nd (0 of 3 replicates; controls 0 of 9).
Y29R/F95C/F98M: nd (0 of 3 replicates; controls 0 of 9).
R53Q/G94V/F98K: nd (0 of 3 replicates; controls 1 of 9).